Experimental data as given in publication PMC3984012 (Journal of Acquired Immune Deficiency Syndromes (1999), 2014).
Read-outs that look alike come from different tables or passages of the source.

What was measured:
[1] = format: in vivo, human
Safety and tolerability = format: in vivo, human; conditions: healthy volunteers
[2] = single dose MVC 300 mg, cited from earlier work
[3] = MVC dosed in combination with saquinavir/ritonavir (SQV/r); cited from earlier work
[4] = mild (Child-Pugh class A) hepatic impairment
[5] = moderate (Child-Pugh class B) hepatic impairment

MVC C12, geometric mean (%CV) ([1]; MVC 150 mg BID + BOC 800 mg TID, day 10, N = 14): 66.1 ng/mL
MVC C12, geometric mean (%CV) ([1]; MVC 150 mg BID + TVR 750 mg TID, day 10, N = 13): 235.5 ng/mL
MVC C12, geometric mean (%CV) ([1]; MVC 150 mg BID alone, day 5, N = 14): 23.8 ng/mL
MVC average concentration (Cavg) ([1]; MVC 150 mg BID in the presence of BOC): 151 ng/mL
MVC average concentration (Cavg) ([1]; MVC 150 mg BID in the presence of TVR): 474 ng/mL
MVC Tmax, median (range) ([1]; MVC administered alone): 2.0 (range, 1.0–6.0) hours
MVC Tmax, median (range) ([1]; MVC administered with BOC): 2.0 (range, 0.5–3.0) hours
MVC Tmax, median (range) ([1]; MVC given with TVR): 3.0 (range, 2.0–4.0) hours
MVC C12 fold higher ([1]; MVC plus BOC compared with MVC alone): approximately 3 fold
MVC C12 fold higher ([1]; MVC plus TVR compared with MVC alone): approximately 10 fold
Increase of MVC plasma exposure (based on AUC12 and Cmax) ([1]; in the presence of TVR versus MVC alone): 8- to 9 fold
Substance: Maraviroc [MVC]
Postural hypotension or dizziness (Safety and tolerability; MVC coadministered with BOC or TVR): No postural hypotension or dizziness was reported
AE incidence (Safety and tolerability; during treatment): 43%
Cmax greater relative to subjects with normal hepatic function [2, 4]: 11%
Geometric mean AUClast greater relative to subjects with normal hepatic function [2, 4]: 25%
Cmax greater relative to subjects with normal hepatic function [2, 5]: 32%
Geometric mean AUClast greater relative to subjects with normal hepatic function [2, 5]: 46%
Increase in MVC exposures [3]: 9.77 fold
